Biological target: T1, vWF-degrading protease (Homo sapiens, UniProt Q76LX8)
T1 sequence (Q76LX8 75-1427): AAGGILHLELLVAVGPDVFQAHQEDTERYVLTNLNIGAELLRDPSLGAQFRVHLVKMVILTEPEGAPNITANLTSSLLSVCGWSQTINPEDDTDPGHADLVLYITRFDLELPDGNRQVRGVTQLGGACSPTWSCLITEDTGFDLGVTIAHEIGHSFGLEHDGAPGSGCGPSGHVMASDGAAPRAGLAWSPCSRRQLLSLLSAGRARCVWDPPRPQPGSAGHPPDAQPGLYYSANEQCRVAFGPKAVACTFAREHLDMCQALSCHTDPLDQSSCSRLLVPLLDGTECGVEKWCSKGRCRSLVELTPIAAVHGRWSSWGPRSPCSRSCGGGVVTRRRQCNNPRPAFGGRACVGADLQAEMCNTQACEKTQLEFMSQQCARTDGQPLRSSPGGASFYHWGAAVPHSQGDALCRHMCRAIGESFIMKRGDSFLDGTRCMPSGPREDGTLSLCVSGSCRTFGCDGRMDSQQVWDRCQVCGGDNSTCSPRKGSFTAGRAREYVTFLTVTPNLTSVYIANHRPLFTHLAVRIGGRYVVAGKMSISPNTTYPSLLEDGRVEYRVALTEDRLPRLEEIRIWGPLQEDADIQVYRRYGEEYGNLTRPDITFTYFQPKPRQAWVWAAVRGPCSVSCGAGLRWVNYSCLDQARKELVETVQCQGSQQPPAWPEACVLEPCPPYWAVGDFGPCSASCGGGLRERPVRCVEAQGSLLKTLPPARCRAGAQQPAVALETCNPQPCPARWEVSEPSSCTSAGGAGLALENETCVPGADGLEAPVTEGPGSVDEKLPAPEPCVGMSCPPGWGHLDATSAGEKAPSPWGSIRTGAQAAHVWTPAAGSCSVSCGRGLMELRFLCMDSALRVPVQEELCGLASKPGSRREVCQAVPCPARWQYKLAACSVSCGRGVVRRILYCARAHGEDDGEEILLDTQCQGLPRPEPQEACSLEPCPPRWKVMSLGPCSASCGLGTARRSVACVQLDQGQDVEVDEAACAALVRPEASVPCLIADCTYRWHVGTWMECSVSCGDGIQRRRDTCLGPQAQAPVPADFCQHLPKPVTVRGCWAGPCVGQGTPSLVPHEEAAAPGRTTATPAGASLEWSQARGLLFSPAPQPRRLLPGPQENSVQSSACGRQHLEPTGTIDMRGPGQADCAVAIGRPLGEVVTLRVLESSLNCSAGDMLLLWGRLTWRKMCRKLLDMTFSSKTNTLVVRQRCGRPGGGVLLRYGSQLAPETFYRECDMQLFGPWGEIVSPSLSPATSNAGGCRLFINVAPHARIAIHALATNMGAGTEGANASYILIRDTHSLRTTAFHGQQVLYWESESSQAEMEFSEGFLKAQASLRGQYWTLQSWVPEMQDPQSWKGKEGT
Type: biochemical

SMILES: N=C(N)NCCC[C@H](NC(=O)[C@@H]1CCCN1C(=O)[C@H](N)Cc1ccccc1)C(=O)CCl [PPACK, Diphenylalanylprolyl arginine-chloromethylketone]
- effect on the activity of the vWF-degrading protease: not--or not substantially--affected
